Reference: US20220411487A1 (Regeneron, published 2022)

Target: T1, full-length mouse TMPRSS6 with a C-terminal triple myc tag on HEK293.hHJV cells (HEK293.hHJV/3xMyc.mTMPRSS6) (mouse, UniProt Q9DBI0 1-811)
T1 sequence: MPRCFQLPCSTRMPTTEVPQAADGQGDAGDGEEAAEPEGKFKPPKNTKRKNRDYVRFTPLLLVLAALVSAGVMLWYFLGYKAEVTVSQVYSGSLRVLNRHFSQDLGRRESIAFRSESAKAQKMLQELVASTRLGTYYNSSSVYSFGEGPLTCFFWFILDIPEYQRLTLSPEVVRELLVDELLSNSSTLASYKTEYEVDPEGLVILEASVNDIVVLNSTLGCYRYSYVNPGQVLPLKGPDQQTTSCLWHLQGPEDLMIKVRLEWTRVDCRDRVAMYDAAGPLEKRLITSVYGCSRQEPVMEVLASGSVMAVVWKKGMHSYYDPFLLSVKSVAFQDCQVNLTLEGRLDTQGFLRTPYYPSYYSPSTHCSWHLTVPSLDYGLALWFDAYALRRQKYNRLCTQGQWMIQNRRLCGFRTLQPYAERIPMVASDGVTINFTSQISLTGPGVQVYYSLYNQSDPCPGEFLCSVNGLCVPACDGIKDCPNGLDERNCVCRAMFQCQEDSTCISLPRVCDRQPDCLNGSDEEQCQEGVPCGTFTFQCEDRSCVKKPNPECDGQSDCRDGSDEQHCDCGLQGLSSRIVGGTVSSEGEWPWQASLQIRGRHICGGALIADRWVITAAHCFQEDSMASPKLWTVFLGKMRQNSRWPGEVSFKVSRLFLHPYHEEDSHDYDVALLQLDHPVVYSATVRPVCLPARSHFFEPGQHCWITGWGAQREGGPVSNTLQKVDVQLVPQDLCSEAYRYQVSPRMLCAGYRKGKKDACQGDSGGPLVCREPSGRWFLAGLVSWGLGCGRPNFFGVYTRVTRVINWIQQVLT
Assay: cell-based or functional assay

B1: REGN7973 (antibody, human IgG4 S228P, kappa, V domains shown)
VH: EVQLVESGGGLVKPGGSLRLSCAASGFTFSNAWMSWVRQAPGKGLEWVGRIKSKTDSGTTDYAAPVKGRFTISRDDSKNTLYLQMNSLKTEDTAVYYCTTVDNDFWSGYYNWFDPWGQGTLVTVSS
VL: [gap - about 100 residues]
notes: fully human; human IgG4 Fc with hinge S108P; also called mAb37777
Geometric Mean Fluorescence Intensity of cell surface hHJV, 50 nM mAb: 8190
Median Fluorescence Intensity of cell surface hHJV, 50 nM mAb: 7440
